In the test the test system is ventricular reentry arrhytmias. In words: Ventricular reentry arrhythmias in dogs after coronary artery occlusion. It counts as in vivo. The method, then:
Three dogs were studied in the anesthetized, open chest state to facilitate electrode placement for mapping. α-chloralose was given as a bolus (200 mg/kg) and then a constant Infusion at 8 mg/kg/hr (dissolved in polyethylene glycol, MW=200). The femoral vein and artery was cannulated for administration of fluid and drugs and for measurement of ascending aortic pressure, respectively.
The sinus node was clamped and the atrial appendage was paced with a programmable stimulator with constant current outputs at two times diastolic threshold. Pacing rate was ≥200 b/min to control heart rates. Ventricular pacing one pole of a multipolar needle in the normal zone employed an anode (7 cm^2 stainless steel) in the abdominal muscle. Endocardial Effective Refractory Period (ERP) was measured by the standard extrastimulus technique. Late ventricular diastolic threshold was measured during each intervention; the pacing current was four times threshold.
Test sites were chosen along the shaft of 16 pole needles (J. Kassell, Fayetteville, NC); each pole completely surrounds the needle shaft to prevent directionality of needle orientation from recording of adjacent Purkinje strands. Six bipolar electrograms (1 mm spacing) were recorded sequentially down the shaft of the needle by amplifying up to 1000 times, filtering from 3-1300 Hz and recording via oscilloscope during atrial pacing. Four intramural electrograms are recorded on each multipolar needle. Epicardial electrograms are activated latest on each needle. […] Inter-needle distance measured on epicardium varies over 6-10 mm in dogs weighing 12-16 kg.
The endocardium was paced at the base, apical septum and lateral free wall just outside the risk zone. After ERP was determined, the S1-S2 interval was prolonged by 4 msec > ERP and a S3 was added to the protocol initially with an S2-S3 interval equal to 50 msec > S1-S2. […] Normal cardiac muscle ERP was recorded with each intervention. […]

As for “Ac-D-Tyr-D-Pro-D-4Hyp-Gly-D-Ala-Gly-NH2 [Compound 2]”, the Effective refractory period runs as follows: (first dog, after the lowest dose (control 150 msec)) 154 ms; (first dog, at the highest and last dose (control 150 msec)) 148 ms; (second dog, first site of induction (lateral), throughout the testing period) 163 ms.

Source of the values: EP1370276B1, “INTERCELLULAR COMMUNICATION FACILITATING COMPOUNDS AND THEIR MEDICAL USE” (Zealand Pharma A/S, priority 2001, dated 2002).
